Sequences of proteins named here, by UniProt entry; tags and fusion partners are left off. Residues count along the entry.
UniProt P56524, 2-1084: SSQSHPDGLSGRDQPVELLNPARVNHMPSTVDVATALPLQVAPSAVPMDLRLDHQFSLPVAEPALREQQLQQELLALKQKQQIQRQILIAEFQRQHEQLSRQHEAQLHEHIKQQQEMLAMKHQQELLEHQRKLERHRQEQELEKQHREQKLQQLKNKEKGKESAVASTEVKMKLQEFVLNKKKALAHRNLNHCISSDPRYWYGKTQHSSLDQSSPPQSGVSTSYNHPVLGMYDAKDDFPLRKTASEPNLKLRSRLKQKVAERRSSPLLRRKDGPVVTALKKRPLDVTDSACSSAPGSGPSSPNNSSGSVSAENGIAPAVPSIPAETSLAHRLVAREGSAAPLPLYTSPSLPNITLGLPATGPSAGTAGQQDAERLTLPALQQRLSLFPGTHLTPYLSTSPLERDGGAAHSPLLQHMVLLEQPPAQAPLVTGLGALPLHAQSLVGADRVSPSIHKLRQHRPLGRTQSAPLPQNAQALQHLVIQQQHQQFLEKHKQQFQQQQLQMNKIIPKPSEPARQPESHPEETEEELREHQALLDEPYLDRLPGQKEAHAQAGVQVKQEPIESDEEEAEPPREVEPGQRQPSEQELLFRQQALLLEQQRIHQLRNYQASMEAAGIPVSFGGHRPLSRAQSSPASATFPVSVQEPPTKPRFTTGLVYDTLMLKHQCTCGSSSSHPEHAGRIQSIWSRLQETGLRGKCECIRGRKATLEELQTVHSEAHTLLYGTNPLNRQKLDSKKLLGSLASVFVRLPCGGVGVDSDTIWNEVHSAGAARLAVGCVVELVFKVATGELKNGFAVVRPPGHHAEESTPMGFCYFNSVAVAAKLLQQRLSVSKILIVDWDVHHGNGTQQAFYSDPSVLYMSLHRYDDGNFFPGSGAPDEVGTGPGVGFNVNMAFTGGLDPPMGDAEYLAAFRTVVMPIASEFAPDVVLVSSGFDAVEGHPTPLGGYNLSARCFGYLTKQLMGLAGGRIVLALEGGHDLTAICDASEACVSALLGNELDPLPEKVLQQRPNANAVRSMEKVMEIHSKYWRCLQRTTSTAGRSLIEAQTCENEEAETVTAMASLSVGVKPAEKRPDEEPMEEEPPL

According to patent publication US9056843B2, “Trifluoromethyl-oxadiazole derivatives and their use in the treatment of disease” (NOVARTIS AG, priority 2011, dated 2015):

Target: Human recombinant HDAC4 (Homo sapiens (Human), UniProt P56524)
Assay: Test 2: HDAC4 assay (fluorogenic substrate, 5 μM acetyl-Gly-Ala-Lys(ε-trifluoroacetyl)-AMC)
Format: biochemical
Settings: Test 2 (values without asterisk)
Protocol: Test 2: HDAC4 Assay Description
Control wells with HDAC4 only (positive control) and without HDAC4 (negative control) were included on the microplate. Bovine trypsin (4.5 μl of a 300 nM solution) was added and the plate incubated for additional 15 minutes at room temperature. The plate was placed in a fluorescence microplate reader, and read at an excitation wavelength of 360 nm and an emission wavelength of 450 nm with a 10 nm bandpath. Fluorescence values for all wells containing HDAC4 (positive control and wells with test compound) were corrected by subtracting negative control fluorescence values, and IC50 values were calculated by fitting the dose-response curves to a 4-parameter logistic function.

IC50: 0.97 nM
Compound: CCCN(CCC)C[C@@H](C)NC(=O)c1ccc(-c2noc(C(F)(F)F)n2)cc1 [Example 137, (R)—N-(1-(dipropylamino)propan-2-yl)-4-(5-(trifluoromethyl)-1,2,4-oxadiazol-3-yl)benzamide]
